Here are results for one compound from patent US20070191627A1, “Stilbene derivatives and their use in medicaments” (priority 2003, published 2007).

The chains behind the UniProt entries cited, without tags or fusion partners. Residues count along the entry.
UniProt P23219, 24-599: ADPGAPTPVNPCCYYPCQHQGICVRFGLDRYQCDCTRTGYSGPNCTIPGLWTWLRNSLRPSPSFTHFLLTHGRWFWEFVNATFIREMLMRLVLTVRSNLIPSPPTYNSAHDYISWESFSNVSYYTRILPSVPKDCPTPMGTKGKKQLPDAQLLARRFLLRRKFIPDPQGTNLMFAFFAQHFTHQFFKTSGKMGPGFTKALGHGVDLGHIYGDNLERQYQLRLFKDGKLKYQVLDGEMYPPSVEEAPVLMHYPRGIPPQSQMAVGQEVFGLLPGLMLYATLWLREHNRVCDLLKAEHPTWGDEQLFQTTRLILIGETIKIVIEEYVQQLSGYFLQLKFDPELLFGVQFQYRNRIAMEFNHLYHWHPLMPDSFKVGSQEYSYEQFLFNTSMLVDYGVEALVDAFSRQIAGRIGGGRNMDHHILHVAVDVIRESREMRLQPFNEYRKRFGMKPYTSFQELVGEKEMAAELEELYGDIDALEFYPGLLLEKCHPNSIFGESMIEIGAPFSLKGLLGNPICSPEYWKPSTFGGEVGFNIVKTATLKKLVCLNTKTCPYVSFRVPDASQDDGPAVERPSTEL

The target in the experiment is T1, COX 1 (Homo sapiens, UniProt P23219).
T1 construct: purchased IBL Products Company, Hamburg, Germany
Kind of experiment: COX (human) inhibitor screening assay, COX 1. It is filed as biochemical. The source says:
COX (Human) Inhibitor Screening Assay
An immunoassay of the IBL Products Company, Hamburg, Germany was used for the determination of COX 1 and COX 2 activities. The assay quantitatively determines the prostaglandins F, E and D as well as thromboxan B of such prostaglandins, which are formed by the cyclooxygenase reaction.

In the case of `Oc1ccc(C=Cc2cc(O)cc(O)c2)cc1` [Resveratrol, 3,4′,5-Trihydroxystilbene, reference compound], 0.5 µM corresponded to half-maximal inhibition (IC50). This lies in the sub-micromolar range.
